Data from ChEMBL document CHEMBL4007395 (J Med Chem, 2017).

Experiment: clinical
Details: human, in vivo, po, 10 mg

Cmax: 2.81 ng/mL
SMILES: CC(C)c1c(C(=O)Nc2ccccc2)c(-c2ccccc2)c(-c2ccc(F)cc2)n1CC[C@@H](O)C[C@@H](O)CC(=O)O [ATORVASTATIN]
